Values of other authors in PMC5636616, “Studies on the Interaction of the Histone Demethylase KDM5B with Tricarboxylic Acid Cycle Intermediates” (Journal of Molecular Biology, 2017).

Target: T1, KDM5B (Homo sapiens, UniProt Q9UGL1)
T1 construct: purified recombinant KDM5B (produced in Sf9 insect cells, M1-R822); made in house; host or cells: Sf9 insect cells
T1 sequence (Q9UGL1 1-822): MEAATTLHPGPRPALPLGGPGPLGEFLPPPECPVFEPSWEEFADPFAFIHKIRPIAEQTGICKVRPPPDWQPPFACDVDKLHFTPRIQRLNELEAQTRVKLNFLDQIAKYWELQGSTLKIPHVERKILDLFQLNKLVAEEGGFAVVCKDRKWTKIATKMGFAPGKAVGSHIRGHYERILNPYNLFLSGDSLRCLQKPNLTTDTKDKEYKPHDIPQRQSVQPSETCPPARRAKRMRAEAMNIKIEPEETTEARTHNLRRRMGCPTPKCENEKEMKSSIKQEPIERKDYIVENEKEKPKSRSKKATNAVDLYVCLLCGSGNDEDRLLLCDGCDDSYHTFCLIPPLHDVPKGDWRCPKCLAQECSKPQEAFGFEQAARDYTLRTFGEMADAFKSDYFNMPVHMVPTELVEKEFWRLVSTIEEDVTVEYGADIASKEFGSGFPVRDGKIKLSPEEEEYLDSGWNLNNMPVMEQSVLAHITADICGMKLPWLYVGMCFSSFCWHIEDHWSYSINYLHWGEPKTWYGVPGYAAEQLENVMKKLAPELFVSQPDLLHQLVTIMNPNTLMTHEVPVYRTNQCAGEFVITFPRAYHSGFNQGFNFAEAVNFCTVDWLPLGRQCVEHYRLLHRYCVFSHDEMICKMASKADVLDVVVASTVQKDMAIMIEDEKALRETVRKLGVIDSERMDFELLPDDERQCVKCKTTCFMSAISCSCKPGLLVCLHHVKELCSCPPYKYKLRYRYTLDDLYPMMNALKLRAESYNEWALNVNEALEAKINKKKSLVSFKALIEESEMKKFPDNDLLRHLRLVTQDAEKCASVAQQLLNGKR
Conditions: FDH-coupled assay, truncated KDM5B; read-out: Km^app(H3K4me2(1–15)); cited from earlier work

H3K4me2(1–15): 15-mer histone H3 peptide fragment dimethylated at lysine-4, KDM5B substrate
Km: 3.6 µM
